The source of these data is PubChem BioAssay AID623870 (Broad Institute, 2012).

Only a part is listed here, and it is no random draw. Some salts and complexes are drawn in separate pieces, as the source files them; their charges need not balance. Activity calls are given as the source filed them.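 How the source made its calls: active means mean inhibition of replicates at least 50% and at least half of replicates each reaching 50%; inconclusive means half or more replicates reach 50% but mean below 50%; inactive means the rest.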

The term inhibition denotes the drop in the measured response relative to a control, in per cent.

The experiment has as its target Transforming acidic coiled-coil-containing protein 3 (Homo sapiens) (UniProt Q9Y6A5). The experiment can be described thus: disruptors of ARNT/TACC3 protein interaction, primary screen, biochemical, AlphaScreen, single concentration (AID 623870).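 Further: 0% = complete ARNT plus TACC3 wells and 100% = ARNT alone without TACC3.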 The note with it: AlphaScreen His-ARNT PAS-B/GST-TACC3 binding, luminescence; at 9.99 µM; hits give high values; TACC3 fragment carries E629A point mutation.
Consider `CP(=O)(Nc1ccccn1)Oc1ccc(Cl)cc1` (stereo not given), for which the inhibition is inactive: -5.48%.

In the case of `CCOP(C)(=S)SCC(=O)NC(C)C(=O)O` (stereo not given), the inhibition is inactive: -7.32%.

With `CCOC(=O)c1ccc(NP(C)(=O)Oc2ccc(OC)cc2)cc1` (stereo not given), the inhibition was inactive: 0.105%.

Regarding `CCc1ccc(OP(C)(=O)N2CCN(c3ccc([N+](=O)[O-])cc3)CC2)cc1` (stereo not given), the inhibition is inactive: 10.1%.

On to `CP(=O)(NC(=O)Nc1ccccc1)Oc1ccccc1` (stereo not given), for which the inhibition is inactive: -4.87%.

In the case of `Cc1cc(C)cc(OP(C)(=O)Nc2ccc(SC(F)(F)F)cc2)c1` (stereo not given), the inhibition is inactive: 8.37%.

On to `Cc1cccc(C)c1OP(C)(=O)Nc1ccc(SC(F)(F)F)cc1` (stereo not given), for which the inhibition was inactive: -20.7%.

In the case of `CP(=O)(Oc1ccccc1)OC(c1ccccc1)C(F)(F)F` (stereo not given), the inhibition was inactive: -9.56%.

With `COc1ccccc1OP(C)(=O)Nc1ccccc1` (stereo not given), the inhibition was inactive: -1.92%.

For the compound `CP(=O)(Nc1ccccc1Br)Oc1ccccc1` (stereo not given), the inhibition was inactive: -2.8%.

As to `CP(=S)(Nn1cnnc1)Oc1ccccc1` (stereo not given), the inhibition is inactive: 11.1%.

For the compound `COc1ccccc1OP(C)(=O)Nc1cc(Cl)ccc1C` (stereo not given), the inhibition is inactive: 3.66%.

Take `COc1ccc(OP(C)(=O)Nc2cccc(F)c2)cc1` (stereo not given): the inhibition was inactive: -1.72%.

With `Cc1cc(C)cc(OP(C)(N)=O)c1` (stereo not given), the inhibition was inactive: -7.79%.

With `CCOC(=O)c1ccc(NP(C)(=O)Oc2ccccc2)cc1` (stereo not given), the inhibition is inactive: 2.9%.

For the compound `Cc1ccc(NP(C)(=O)Oc2ccccc2)c(C)c1` (stereo not given), the inhibition is inactive: -3.55%.

As to `CC(C)(C)c1ccc(OP(C)(=O)Nc2ccc(SC(F)(F)F)cc2)cc1` (stereo not given), the inhibition is inactive: -7.66%.

As to `Cc1cccc(C)c1OP(C)(N)=O` (stereo not given), the inhibition is inactive: -0.617%.

Turning to `O=[N+]([O-])c1ccc2c(c1)C=Nc1ccccc1O2`, the inhibition is inactive: 7.07%.

Consider `O=[N+]([O-])c1cc([N+](=O)[O-])c(Nc2cccnc2)c([N+](=O)[O-])c1`, for which the inhibition was inactive: -4.2%.

Consider `CP(=O)(Nc1cccc(Br)c1)Oc1ccccc1` (stereo not given), for which the inhibition was inactive: 2.58%.

For `Cc1cc(C)cc(OP(C)(=O)Nc2ccccn2)c1` (stereo not given), the inhibition was inactive: -3.12%.

Regarding `Cc1cc(C)cc(OP(C)(=O)Nc2ccc(C)cc2C)c1` (stereo not given), the inhibition is inactive: 10.3%.

As to `CCOC(=O)c1ccc(NP(C)(=O)Oc2cc(C)cc(C)c2)cc1` (stereo not given), the inhibition is inactive: -3.06%.

As for `COc1ccccc1OP(C)(=O)Nc1cccc(Br)c1` (stereo not given), the inhibition is inactive: 0.782%.

As for `CC1=NCCc2c1[nH]c1ccccc21.O=[N+]([O-])c1cc([N+](=O)[O-])c(O)c([N+](=O)[O-])c1`, the inhibition was inactive: 4.18%.

`O=C(O)c1cccc(Nc2c([N+](=O)[O-])cc([N+](=O)[O-])cc2[N+](=O)[O-])c1`: the inhibition was inactive: -5.14%.

On to `CP(=O)(Nc1ccc(SC(F)(F)F)cc1)Oc1ccccc1` (stereo not given), for which the inhibition was inactive: -5.75%.

For `CN1CCCCC1COC(=O)C1(O)c2ccccc2CCc2ccccc21` (stereo not given), the inhibition is inactive: -8.85%.

For the compound `COc1ccccc1OP(C)(=O)Nc1c(C)cccc1C` (stereo not given), the inhibition is inactive: 2.26%.

With `O=[N+]([O-])c1cc([N+](=O)[O-])c(Nc2nnnn2CCO)c([N+](=O)[O-])c1`, the inhibition was inactive: 1.77%.

As for `CC1=C2N=C(C=C3N=C(C(C)=C4[N-][C@@](C)([C@@H]5N=C1[C@](C)(CCC(=O)NC[C@@H](C)OP(=O)([O-])O[C@H]1[C@@H](O)[C@@H](n6cnc7cc(C)c(C)cc76)O[C@@H]1CO)[C@H]5CC(N)=O)[C@@](C)(CC(N)=O)[C@@H]4CCC(N)=O)[C@@](C)(CC(N)=O)[C@@H]3CCC(N)=O)C(C)(C)[C@@H]2CCC(N)=O.[C-]#N.[Co+3]`, the inhibition is inactive: 25.2%.

As for `CCOC(=O)C(CC)C1=NC(C)(C)Cc2ccccc21.O=[N+]([O-])c1cc([N+](=O)[O-])c(O)c([N+](=O)[O-])c1` (stereo not given), the inhibition was inactive: -13.9%.

As to `Cc1nc2ccc3ccccc3c2s1.O=[N+]([O-])c1cc([N+](=O)[O-])c(O)c([N+](=O)[O-])c1`, the inhibition was inactive: -4.57%.

Consider `O=[N+]([O-])c1cc([N+](=O)[O-])c(-c2cnn(-c3ccccc3)c2)c([N+](=O)[O-])c1`, for which the inhibition was inactive: 9.86%.

As for `O=[N+]([O-])c1cc([N+](=O)[O-])c(-n2nnc3ccccc32)c([N+](=O)[O-])c1`, the inhibition is inactive: -3.85%.

For `Cc1ccccc1NP(C)(=O)Nc1ccccc1C`, the inhibition was inactive: -1.33%.

Take `CP(=O)(Nc1ccc2c(c1)OCCO2)Oc1ccccc1` (stereo not given): the inhibition was inactive: -5.77%.

For the compound `CCOP(C)(=S)SCC(=O)NC(C)(CC)C(=O)O` (stereo not given), the inhibition was inactive: -9.12%.

In the case of `CP(=O)(Nc1ccc(SC(F)(F)F)cc1)Oc1ccc(F)cc1` (stereo not given), the inhibition was inactive: 9.27%.

For the compound `Cc1c(C(c2ccc3c(c2)OCO3)c2c(C)n(C)n(-c3ccccc3)c2=O)c(=O)n(-c2ccccc2)n1C.O=[N+]([O-])c1cc([N+](=O)[O-])c(O)c([N+](=O)[O-])c1`, the inhibition was inactive: -2.89%.

As to `O=[N+]([O-])c1cc([N+](=O)[O-])c(NCC2CCS(=O)(=O)C2)c([N+](=O)[O-])c1` (stereo not given), the inhibition is inactive: 0.041%.

For `Cc1cc(-c2cccc3ccccc23)c(C)cn1.O=[N+]([O-])c1cc([N+](=O)[O-])c(O)c([N+](=O)[O-])c1`, the inhibition is inactive: -1.38%.

Take `O=[N+]([O-])c1ccc(OP2(=O)COCCO2)cc1` (stereo not given): the inhibition is inactive: -28.9%.

As for `COc1ccc(NP(C)(=O)Oc2ccccc2OC)cc1` (stereo not given), the inhibition was inactive: -1.41%.

Turning to `CN(C)CCOC(=O)C(O)(c1ccccc1)C1CCCCC1` (stereo not given), the inhibition was inactive: -2.47%.

Consider `COc1ccc(OP(C)(=O)Nc2cccc(Br)c2)cc1` (stereo not given), for which the inhibition is inactive: -3.1%.

With `O=[N+]([O-])c1cc([N+](=O)[O-])c(OC2CCCCC2O)c([N+](=O)[O-])c1` (stereo not given), the inhibition is inactive: -16.3%.

In the case of `CCCCCOc1ccc(NP(C)(=O)Oc2ccc(Cl)cc2Cl)cc1` (stereo not given), the inhibition was inactive: -5.64%.

As for `CP(=O)(Nc1ccccc1)Oc1ccc(F)cc1` (stereo not given), the inhibition is inactive: 8.72%.

Take `CCN(CC)CCCOC(=O)C(O)(c1ccccc1)C1CCCCC1` (stereo not given): the inhibition is inactive: -4.95%.

`Cc1c([N+](=O)[O-])cc([N+](=O)[O-])c(Br)c1[N+](=O)[O-]`: the inhibition is inactive: -9.37%.

As to `COc1ccc(OP(C)(=O)Nc2ccc(SC(F)(F)F)cc2)cc1` (stereo not given), the inhibition is inactive: -0.261%.

Regarding `CCOC(=O)c1ccc(NP(C)(=O)Oc2ccc(F)cc2)cc1` (stereo not given), the inhibition was inactive: -3.21%.

Turning to `COc1ccc2c(c1O)-c1c(O)c(OC)cc3c1[C@H](C2)[N+](C)(C)CC3.O=[N+]([O-])c1cc([N+](=O)[O-])c([O-])c([N+](=O)[O-])c1[O-]`, the inhibition was inactive: 1.69%.

Regarding `O=C(OC1CN2CCC1CC2)c1ccc([N+](=O)[O-])cc1` (stereo not given), the inhibition was inactive: -26.1%.

As for `CC(C)c1ccc(OP(C)(=O)Nc2ccc(SC(F)(F)F)cc2)cc1` (stereo not given), the inhibition was inactive: -4.23%.

On to `CP(=O)(Nc1ccccc1F)Oc1ccccc1` (stereo not given), for which the inhibition was inactive: -15.7%.

`CCc1ccc(OP(C)(=O)O)cc1`: the inhibition is inactive: -5.3%.

For the compound `CP(=O)(Nc1ccccn1)Oc1ccccc1` (stereo not given), the inhibition was inactive: -3.65%.

Consider `COc1ccccc1OP(C)(=O)Nc1ccc(C)cc1C` (stereo not given), for which the inhibition was inactive: -5.59%.

As to `O=[N+]([O-])c1cc([N+](=O)[O-])c(Nc2ccccn2)c([N+](=O)[O-])c1`, the inhibition is inactive: 16.5%.

In the case of `Cc1c(NP(C)(=O)Oc2ccc(C(C)C)cc2)c(=O)n(-c2ccccc2)n1C` (stereo not given), the inhibition was inactive: -1.24%.

Take `CN(C)CCOC(=O)C(O)(c1ccccc1)C1CCCC1` (stereo not given): the inhibition is inactive: -20.2%.

Take `COc1ccc(OP(C)(=O)Nc2ccccn2)cc1` (stereo not given): the inhibition was inactive: 0.343%.

As for `COc1ccccc1OP(C)(=O)Nc1ccc(Br)cc1` (stereo not given), the inhibition is inactive: -5.42%.

Take `CP(=O)(OCCOc1ccccc1)OCCOc1ccccc1`: the inhibition is inactive: -0.826%.

Take `CP(=O)(Nc1ccc(Cl)cc1Cl)Oc1ccccc1` (stereo not given): the inhibition is inactive: -3.51%.

Turning to `CCCCCCCCCCCCCCCC1C[N+](C)(C)CCOP(C)(=O)O1` (stereo not given), the inhibition was inactive: 2.49%.

`COc1ccc(OP(C)(=O)Nc2ccccc2Br)cc1` (stereo not given): the inhibition was inactive: -1.37%.

Regarding `COc1ccccc1OP(C)(=O)Nc1ccc(C)c(C)c1` (stereo not given), the inhibition was inactive: -4.5%.

With `O=C1C(O)=C([N+](=O)[O-])C(=O)C(O)=C1[N+](=O)[O-]`, the inhibition was inactive: 5.26%.

For the compound `Cc1cc(C)cc(OP(C)(=O)Nc2cccc(C(F)(F)F)c2)c1` (stereo not given), the inhibition was inactive: -1.67%.

In the case of `CP(=O)(OC12CC3CC(CC(C3)C1)C2)OC12CC3CC(CC(C3)C1)C2`, the inhibition is inactive: 4.62%.

As for `CCOC(=O)c1ccc(NP(C)(=O)Oc2ccc(Cl)cc2)cc1` (stereo not given), the inhibition was inactive: -0.742%.

Regarding `CN(C)C(=O)c1c([N+](=O)[O-])cc([N+](=O)[O-])cc1[N+](=O)[O-]`, the inhibition is inactive: 7.31%.

For the compound `CP(=O)(Nc1ccc(Cl)cc1)Oc1ccc(F)cc1` (stereo not given), the inhibition is inactive: -20.2%.

Consider `CC(C)(C)c1ccc(OP(C)(=O)O)cc1`, for which the inhibition was inactive: 0.947%.

For the compound `COc1ccccc1OP(C)(=O)Nc1ccccc1Br` (stereo not given), the inhibition was inactive: 0.295%.

With `CP(=O)(Oc1ccccc1)N1CCOC1=O` (stereo not given), the inhibition was inactive: -5.45%.

As for `CCc1ccc(OP(C)(=O)Nc2cccnc2)cc1` (stereo not given), the inhibition was inactive: 10.6%.

For `COc1ccccc1OP(C)(=O)Nc1c(C)n(C)n(-c2ccccc2)c1=O` (stereo not given), the inhibition was inactive: -2.57%.

In the case of `O=C(OCCCN1CCCC1)C(O)(c1ccccc1)C1CCCCC1` (stereo not given), the inhibition is inactive: -0.816%.

As for `CCN(CC)CC(O)COC(=O)C(O)(c1ccccc1)C1CCCCC1` (stereo not given), the inhibition is inactive: 0.149%.

As for `COc1ccc(OP(C)(=O)Nc2ccc(Br)cc2)cc1` (stereo not given), the inhibition is inactive: -0.953%.
